Earlier results as cited in patent US6469063B1, “Inhibition of inflammation via inhibition of COX-2 gene transcription” (City of Hope, priority 1999, dated 2002).

Protein sequences, listed by entry. Tags and fused reporters are not part of them. Residues count along the entry.
UniProt P23219, 24-599: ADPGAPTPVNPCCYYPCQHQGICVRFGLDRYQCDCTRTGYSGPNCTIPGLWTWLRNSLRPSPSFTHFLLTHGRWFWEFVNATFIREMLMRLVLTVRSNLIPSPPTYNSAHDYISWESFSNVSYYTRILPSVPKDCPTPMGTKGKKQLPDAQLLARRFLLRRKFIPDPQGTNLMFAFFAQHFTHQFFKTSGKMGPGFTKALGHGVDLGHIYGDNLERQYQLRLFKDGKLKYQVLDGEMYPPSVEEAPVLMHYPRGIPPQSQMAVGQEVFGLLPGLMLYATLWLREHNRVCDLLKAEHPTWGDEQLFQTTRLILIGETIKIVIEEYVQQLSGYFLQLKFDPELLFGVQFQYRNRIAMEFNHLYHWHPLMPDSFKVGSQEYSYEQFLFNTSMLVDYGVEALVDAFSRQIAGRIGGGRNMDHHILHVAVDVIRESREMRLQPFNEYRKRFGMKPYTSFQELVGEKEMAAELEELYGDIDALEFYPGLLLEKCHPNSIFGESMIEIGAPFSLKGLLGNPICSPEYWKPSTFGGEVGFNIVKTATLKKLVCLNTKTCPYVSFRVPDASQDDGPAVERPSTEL
UniProt P35354, 18-604: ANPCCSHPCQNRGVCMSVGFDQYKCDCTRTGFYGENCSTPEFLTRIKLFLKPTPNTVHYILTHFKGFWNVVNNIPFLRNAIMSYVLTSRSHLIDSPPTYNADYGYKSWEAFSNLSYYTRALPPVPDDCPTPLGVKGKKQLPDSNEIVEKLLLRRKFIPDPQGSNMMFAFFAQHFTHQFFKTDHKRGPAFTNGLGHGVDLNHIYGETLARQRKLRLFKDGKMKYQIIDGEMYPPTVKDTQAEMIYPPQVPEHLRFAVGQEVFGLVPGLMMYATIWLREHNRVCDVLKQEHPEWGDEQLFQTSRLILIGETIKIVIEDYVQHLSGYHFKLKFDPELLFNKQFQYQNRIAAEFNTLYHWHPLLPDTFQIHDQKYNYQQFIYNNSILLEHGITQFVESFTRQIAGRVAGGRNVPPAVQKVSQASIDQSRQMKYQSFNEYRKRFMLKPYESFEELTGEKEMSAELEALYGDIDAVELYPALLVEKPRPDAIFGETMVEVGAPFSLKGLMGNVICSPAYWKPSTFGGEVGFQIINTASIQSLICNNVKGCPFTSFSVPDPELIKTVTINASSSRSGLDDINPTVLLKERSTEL

How the values were obtained:
COX-1 = COX-1 (Homo sapiens, UniProt P23219); conditions: low concentration; cited from earlier work
COX-2 = COX-2 (Homo sapiens, UniProt P35354); conditions: low concentration; cited from earlier work

Q: With `O=C(/C=C/c1ccc(O)c(O)c1)OCCc1ccccc1` [CAPE, caffeic acid phenethyl ester] as the compound, how does the “concentration inhibiting COX-1 enzyme activity” value (COX-1) read?
A: 14 to 28 µM

Q: And the “concentration inhibiting COX-2 enzyme activity” value (COX-2)?
A: 14 to 28 µM
